scFv variants of Ab-14 (heavy chain) against a SARS-CoV-2 spike peptide

All variants were tested on one target, the spike HR2 peptide PDVDLGDISGINAS (SARS-CoV-2).

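The starting antibody came from a phage panning campaign against this peptide. AAYL49 was designed without a model: most single CDR substitutions and a random sample of double and triple ones. The scFvs were displayed on barcoded MATa yeast, the peptide on MATalpha yeast. Pairs that bind mate more often; barcode pairs of the diploids are counted by sequencing. A regression on co-assayed BCL2-family reference pairs converts the normalised counts of each replicate to an apparent Kd. Mating was done three times.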

Ab-14 is the parent antibody, in scFv form: VH, then a (GGGGS)3 linker, then VL. The light chain is unchanged in all variants.
VH: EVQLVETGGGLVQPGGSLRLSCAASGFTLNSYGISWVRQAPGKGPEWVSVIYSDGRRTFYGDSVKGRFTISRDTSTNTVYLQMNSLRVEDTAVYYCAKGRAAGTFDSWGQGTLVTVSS
VL: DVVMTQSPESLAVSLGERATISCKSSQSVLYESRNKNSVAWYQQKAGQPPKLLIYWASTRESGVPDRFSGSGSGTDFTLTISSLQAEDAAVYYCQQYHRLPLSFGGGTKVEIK

Changes read parent residue, position, new residue, counted from the first residue of the VH shown.
Every variant below is changed at D62 of the VH (sequential numbering).
The Kd shown is the geometric mean over detected replicates; a lower Kd is a better binder.
"nd" marks a missing value. The strain was present, yet no cells mated with the target were sequenced in any replicate, which points to weak or no binding.
Three control strains display no target. For library AAYL49, 15% of the pairings with them gave a signal, with a median of 11 µM and one signal in twenty below 680 nM, so weak values seen in few replicates may be background. For each scFv, signals with the empty controls are counted beside the result.
For reference, the parent read 4.4 nM as the reference entry and 13 µM (one replicate of three) as a member of this library.

Variant G26W/F27W/D62G showed 320 nM (3 of 3 replicates; controls 1 of 9).
Variant T58R/D62K/F105H showed nd (0 of 3 replicates; controls 0 of 9).
Variant S31A/D62M/F105N showed 76 nM (1 of 3 replicates; controls 0 of 9).
Variant V50R/I51V/D62M showed nd (0 of 3 replicates; controls 1 of 9).
Variant T28C/R56C/D62K showed nd (0 of 3 replicates; controls 0 of 9).
Variant S31W/D62A/S63F showed nd (0 of 3 replicates; controls 0 of 9).
Variant S35A/D62F/K65L showed 23 µM (1 of 3 replicates; controls 2 of 9).
Variant R56F/D62W/K65Y showed 5.5 µM (3 of 3 replicates; controls 1 of 9).
Variant D62Q/A102F/T104E showed nd (0 of 3 replicates; controls 0 of 9).
Variant F27H/G55I/D62K showed nd (0 of 3 replicates; controls 0 of 9).
Variant G33W/Y52C/D62S showed 41 µM (1 of 3 replicates; controls 3 of 9).
Variant D54Y/D62S/S63P showed 14 µM (1 of 3 replicates; controls 3 of 9).
Variant L29M/V50I/D62Q showed nd (0 of 3 replicates; controls 0 of 9).
Variant S53Q/D62T/S63F showed nd (0 of 3 replicates; controls 0 of 9).
Variant G61F/D62M showed nd (0 of 3 replicates; controls 0 of 9).
Variant S31F/Y32N/D62T showed 150 µM (2 of 3 replicates; controls 6 of 9).
Variant N30H/D62R/V64L showed nd (0 of 3 replicates; controls 1 of 9).
Variant V50Q/Y52K/D62Q showed nd (0 of 3 replicates; controls 0 of 9).
Variant Y60K/D62H/R100Y showed nd (0 of 3 replicates; controls 0 of 9).
Variant S53L/D62S/G99F showed 10 µM (2 of 3 replicates; controls 2 of 9).
Variant S53D/D62Y/A102E showed 1.7 µM (2 of 3 replicates; controls 1 of 9).
Variant G26M/Y52K/D62Y showed nd (0 of 3 replicates; controls 0 of 9).
Variant L29H/G33R/D62G showed 4.8 µM (1 of 3 replicates; controls 4 of 9).
Variant V50Q/R56S/D62K showed 21 µM (1 of 3 replicates; controls 0 of 9).
Variant L29G/V50R/D62G showed nd (0 of 3 replicates; controls 1 of 9).
Variant N30I/S35M/D62I showed nd (0 of 3 replicates; controls 2 of 9).
Variant Y32C/I34L/D62G showed 910 nM (1 of 3 replicates; controls 2 of 9).
Variant V50N/D62I showed nd (0 of 3 replicates; controls 0 of 9).
Variant L29C/D62N/T104S showed nd (0 of 3 replicates; controls 0 of 9).
Variant I34C/D62S/T104G showed 6.8 µM (1 of 3 replicates; controls 0 of 9).
Variant G33K/D62H/K65C showed nd (0 of 3 replicates; controls 1 of 9).
Variant N30S/D62N showed 960 nM (3 of 3 replicates; controls 0 of 9).
Variant S31Y/D62Q/D106T showed 48 nM (2 of 3 replicates; controls 0 of 9).

The measurements come from Engelhart et al. 2022 (doi:10.1038/s41597-022-01779-4) through the FLAb antibody collection.